Measured values as given in ChEMBL document CHEMBL4311981, “Synthesis, anticancer activity, and molecular modeling of 1,4-naphthoquinones that inhibit MKK7 and Cdc25” (Eur J Med Chem, 2019).

What was measured:
[1] = target: T1, Neutrophil elastase (Homo sapiens) (UniProt P08246); assay: Inhibition of recombinant HNE (unknown origin) at <50 uM using N-methylsuccinyl-Ala-Ala-Pro-Val-7-amino-4-methylcoumarin, as a substrate measured every 30 sec for 10 mins by fluorometric assay
T1 sequence (whole entry): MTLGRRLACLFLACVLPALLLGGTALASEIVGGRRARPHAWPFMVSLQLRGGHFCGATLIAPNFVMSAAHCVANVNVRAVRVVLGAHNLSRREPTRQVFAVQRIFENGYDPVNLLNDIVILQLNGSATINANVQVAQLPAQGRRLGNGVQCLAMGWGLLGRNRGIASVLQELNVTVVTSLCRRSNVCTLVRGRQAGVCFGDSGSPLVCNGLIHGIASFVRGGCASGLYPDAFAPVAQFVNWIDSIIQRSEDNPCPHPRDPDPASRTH

[2] = target: T2, M-phase inducer phosphatase 2 (Homo sapiens, UniProt P30305)
T2 sequence (P30305 whole entry): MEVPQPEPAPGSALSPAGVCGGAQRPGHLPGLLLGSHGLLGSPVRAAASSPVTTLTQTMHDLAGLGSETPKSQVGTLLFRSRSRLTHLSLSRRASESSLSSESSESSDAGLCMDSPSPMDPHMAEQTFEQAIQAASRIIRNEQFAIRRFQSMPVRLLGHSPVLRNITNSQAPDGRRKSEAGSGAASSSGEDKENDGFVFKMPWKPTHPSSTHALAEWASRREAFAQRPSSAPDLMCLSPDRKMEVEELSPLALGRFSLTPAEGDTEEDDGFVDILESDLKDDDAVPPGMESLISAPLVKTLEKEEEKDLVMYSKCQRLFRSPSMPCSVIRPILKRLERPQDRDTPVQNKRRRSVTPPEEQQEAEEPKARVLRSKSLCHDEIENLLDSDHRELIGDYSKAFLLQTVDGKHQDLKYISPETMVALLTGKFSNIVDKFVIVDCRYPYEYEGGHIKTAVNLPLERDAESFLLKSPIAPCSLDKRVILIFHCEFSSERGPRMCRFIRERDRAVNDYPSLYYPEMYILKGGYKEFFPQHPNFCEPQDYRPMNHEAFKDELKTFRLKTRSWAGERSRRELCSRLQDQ

[3] = target: T3, Dual specificity mitogen-activated protein kinase kinase 7 (Homo sapiens) (UniProt O14733); assay: Binding affinity to MKK7 (unknown origin) expressed in HEK293 cells assessed as dissociation constant at <30 uM by kinomescan method; format: cell-based
T3 sequence (whole entry): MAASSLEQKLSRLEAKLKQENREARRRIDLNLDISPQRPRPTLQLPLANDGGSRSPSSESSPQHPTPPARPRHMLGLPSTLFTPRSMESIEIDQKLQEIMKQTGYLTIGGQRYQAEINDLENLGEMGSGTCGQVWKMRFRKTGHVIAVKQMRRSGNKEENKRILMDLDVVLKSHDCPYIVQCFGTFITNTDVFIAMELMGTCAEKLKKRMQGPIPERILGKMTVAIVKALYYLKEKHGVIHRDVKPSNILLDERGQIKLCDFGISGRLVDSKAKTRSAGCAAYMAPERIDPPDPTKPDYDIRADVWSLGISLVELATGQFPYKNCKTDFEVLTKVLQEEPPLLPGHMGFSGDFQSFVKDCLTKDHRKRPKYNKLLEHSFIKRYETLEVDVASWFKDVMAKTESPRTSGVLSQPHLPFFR

[4] = target: T4, M-phase inducer phosphatase 1 (Homo sapiens, UniProt P30304)
T4 sequence (P30304 whole entry): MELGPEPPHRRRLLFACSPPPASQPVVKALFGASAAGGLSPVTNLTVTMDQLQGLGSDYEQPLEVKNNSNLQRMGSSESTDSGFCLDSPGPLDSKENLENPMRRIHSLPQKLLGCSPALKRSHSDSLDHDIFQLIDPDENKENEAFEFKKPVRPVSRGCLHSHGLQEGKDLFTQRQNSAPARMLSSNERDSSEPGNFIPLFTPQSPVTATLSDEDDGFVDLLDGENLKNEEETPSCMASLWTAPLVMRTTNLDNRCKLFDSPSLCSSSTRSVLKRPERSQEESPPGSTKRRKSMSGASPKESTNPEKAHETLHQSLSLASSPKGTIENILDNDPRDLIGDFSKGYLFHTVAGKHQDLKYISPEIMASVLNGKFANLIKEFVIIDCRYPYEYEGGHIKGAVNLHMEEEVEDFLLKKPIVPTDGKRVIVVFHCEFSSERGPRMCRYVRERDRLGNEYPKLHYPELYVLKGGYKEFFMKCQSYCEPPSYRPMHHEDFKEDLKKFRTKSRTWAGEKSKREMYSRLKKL

[5] = target: T5, Dual specificity mitogen-activated protein kinase kinase 7 (Homo sapiens, UniProt O14733); assay: biochemical
T5 sequence (O14733 whole entry): T3 sequence (whole entry)

Compound | inhibition [1] | IC50 [2] [µM] | Activity [3] | IC50 [4] [µM] | Kd [5] [µM]
O=C1C(O)=C(CN(CCCl)CCCl)C(=O)c2ccccc21 | inactive | 12.7 | inactive | – | –
CC1=CC(=O)c2c(O)cccc2C1=O [PLUMBAGIN] | – | – | – | 0.7 | 14

Active and inactive are the calls of the source. The calls are words filed in the database; no cut-off is given here.
